The source of these data is article PMC12364357, “Glutamate dehydrogenase from Pantoea ananatis: A new bacterial enzyme with dual coenzyme specificity” (PLOS One, 2025).

In this series the test system is N. As to the kind of experiment: purified protein. The following applies: reductive amination, 0.2 mM NADH, 5 mM α-KG, 80 mM Tris-HCl pH 8.0, 25 °C.

As for GdhPa (Pantoea ananatis LMG 5342), the Km stood at 5.87 ± 0.20 mM, the Vmax is 5.01 µmol/min/mg, the kcat worked out at 3.88 s⁻¹ and the kcat/Km came to 662 M⁻¹ s⁻¹.

What is called Km is the concentration of substrate that gives half-maximal velocity. Broadly, the Vmax is the rate approached at saturating substrate. The term kcat denotes the maximal rate divided by the concentration of active sites. What is called kcat/Km is the second-order rate constant that governs catalysis at low substrate concentration.
